Results on two substances are retold here after patent US20250345446A1 (Draupnir Bio ApS, priority 2022, published 2025).

This experiment concerns the target Sortilin (full length sortilin receptor expressed on HEK293 cells) (Homo sapiens (Human)) (UniProt Q99523).

Substance “Adalimumab-… (SEQ ID NO.: 192) (antibody)” returned an EC50 (read off the curve) [cont. C] of 40 nM.

For “Adalimumab-…-OH (SEQ ID NO: 194) (antibody)”, the EC50 (read off the curve) [cont. C] was 30 nM.
